By UniProt entry, the sequences of proteins in these tests, tags left out. Where a name states a change or a piece, a line headed by the entry shows the natural chain unless it says otherwise.
UniProt P31421: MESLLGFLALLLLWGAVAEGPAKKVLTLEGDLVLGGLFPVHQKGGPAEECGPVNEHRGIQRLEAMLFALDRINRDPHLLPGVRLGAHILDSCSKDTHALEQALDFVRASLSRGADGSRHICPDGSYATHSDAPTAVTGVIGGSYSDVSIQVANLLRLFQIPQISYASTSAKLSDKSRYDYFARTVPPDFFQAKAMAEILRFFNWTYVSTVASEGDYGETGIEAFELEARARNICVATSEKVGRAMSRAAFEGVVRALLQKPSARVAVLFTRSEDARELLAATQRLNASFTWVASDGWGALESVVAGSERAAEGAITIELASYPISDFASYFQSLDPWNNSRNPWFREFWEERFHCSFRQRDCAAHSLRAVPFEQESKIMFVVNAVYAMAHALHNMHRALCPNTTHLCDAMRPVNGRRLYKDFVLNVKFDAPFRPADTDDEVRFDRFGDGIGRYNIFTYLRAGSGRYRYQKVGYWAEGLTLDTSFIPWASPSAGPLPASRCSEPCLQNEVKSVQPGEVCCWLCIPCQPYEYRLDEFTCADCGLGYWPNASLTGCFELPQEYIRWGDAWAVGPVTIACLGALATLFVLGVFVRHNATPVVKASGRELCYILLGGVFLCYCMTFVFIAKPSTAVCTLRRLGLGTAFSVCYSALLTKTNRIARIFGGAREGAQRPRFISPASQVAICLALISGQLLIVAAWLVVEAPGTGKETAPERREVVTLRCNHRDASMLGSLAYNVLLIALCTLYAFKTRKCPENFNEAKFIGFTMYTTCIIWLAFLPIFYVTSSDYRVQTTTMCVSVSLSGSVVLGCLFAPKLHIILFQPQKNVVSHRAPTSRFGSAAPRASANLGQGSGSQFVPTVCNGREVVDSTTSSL
UniProt P23385: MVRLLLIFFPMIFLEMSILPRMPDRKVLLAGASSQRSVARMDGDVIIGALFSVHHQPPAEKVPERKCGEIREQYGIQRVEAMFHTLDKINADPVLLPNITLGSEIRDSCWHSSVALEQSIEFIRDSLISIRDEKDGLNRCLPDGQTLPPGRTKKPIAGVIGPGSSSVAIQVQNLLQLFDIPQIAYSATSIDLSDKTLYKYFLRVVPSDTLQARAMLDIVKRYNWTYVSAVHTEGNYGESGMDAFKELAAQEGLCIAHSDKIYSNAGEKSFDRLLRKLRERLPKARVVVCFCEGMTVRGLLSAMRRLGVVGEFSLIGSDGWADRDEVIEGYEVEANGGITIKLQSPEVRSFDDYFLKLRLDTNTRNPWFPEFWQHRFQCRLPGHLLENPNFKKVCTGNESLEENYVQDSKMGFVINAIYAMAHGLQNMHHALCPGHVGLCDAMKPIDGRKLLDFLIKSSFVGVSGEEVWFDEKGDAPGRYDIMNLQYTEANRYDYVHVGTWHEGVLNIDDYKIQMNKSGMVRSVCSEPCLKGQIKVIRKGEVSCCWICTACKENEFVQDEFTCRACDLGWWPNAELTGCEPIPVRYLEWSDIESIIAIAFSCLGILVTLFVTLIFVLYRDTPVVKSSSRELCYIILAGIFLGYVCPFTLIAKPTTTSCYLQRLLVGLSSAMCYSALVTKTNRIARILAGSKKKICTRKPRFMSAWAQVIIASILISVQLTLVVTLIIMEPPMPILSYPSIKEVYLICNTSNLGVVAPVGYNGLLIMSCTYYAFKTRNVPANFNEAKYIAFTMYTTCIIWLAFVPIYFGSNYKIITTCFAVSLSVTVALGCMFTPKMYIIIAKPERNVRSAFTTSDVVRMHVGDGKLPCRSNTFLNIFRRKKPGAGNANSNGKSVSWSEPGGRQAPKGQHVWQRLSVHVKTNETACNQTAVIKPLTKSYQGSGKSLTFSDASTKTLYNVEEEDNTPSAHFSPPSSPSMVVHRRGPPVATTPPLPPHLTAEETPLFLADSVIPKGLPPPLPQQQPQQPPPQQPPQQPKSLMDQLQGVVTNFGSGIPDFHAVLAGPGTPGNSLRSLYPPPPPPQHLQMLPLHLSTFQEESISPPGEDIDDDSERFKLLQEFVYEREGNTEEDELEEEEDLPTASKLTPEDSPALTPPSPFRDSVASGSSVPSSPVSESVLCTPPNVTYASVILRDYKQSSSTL

In ChEMBL document CHEMBL5537160, “Design, Synthesis, Pharmacology, and In Silico Studies of (1S,2S,3S)-2-((S)-Amino(carboxy)methyl)-3-(carboxymethyl)cyclopropane-1-carboxylic Acid (LBG30300): A Picomolar Potency Subtype-Selective mGlu2 Receptor Agonist” (J Med Chem, 2024):

Columns and labels:
Type in all cases: functional, cell-based
[1] = molecular target: T1, Metabotropic glutamate receptor 2 (Rattus norvegicus, UniProt P31421); experiment: Agonist activity at SNAP tagged rat mGlu2 transfected HEK293 cells by TR-FRET assay
[2] = molecular target: T1, Metabotropic glutamate receptor 2; experiment: Agonist activity at SNAP tagged rat mGlu2 transfected HEK293 cells preincubated with antagonist LY-341495 followed by compound addition by TR-FRET assay
How it was run: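 SNAP-tagged rat mGlu2 in HEK293 labeled 24 h post-transfection, 1 h at 37 °C with 100 nM SNAP-Lumi4-Tb and 60 nM SNAP-Green. Cells preincubated with LY341495 (1 μM in methods; 0.3 μM stated in text), washed, agonist dose-response added. TR-FRET: 337 nm excitation, 620/520 nm emission, acceptor ratio of early over late time windows.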

[3] = molecular target: Metabotropic glutamate receptor 1 (Rattus norvegicus, UniProt P23385); experiment: Agonist activity at rat mGlu1 transfected in HEK293 cells by IP-one HTRF assay
How it was run: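 HEK293 cells transiently electroporated with rat receptor plasmid plus EAAC1 Glu transporter, plated 150 000 cells/well on polyornithine, serum-free Glutamax DMEM ≥2 h before assay. At 24 h, washed in Krebs buffer and stimulated 30 min with compound in 50 mM LiCl. IP1 read by HTRF, at least duplicates, EC50 from 2–5 experiments.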

EC50 ([1]; read-out: EC50) [nM] | EC50 ([1]; read-out: pEC50 (converted)) [nM] | EC50 [2] [nM] | SMILES | EC50 ([3]; read-out: EC50) [nM] | EC50 ([3]; read-out: pEC50 (converted)) [nM]
63 | 229 | 229 | N[C@@]1(C(=O)O)CC[C@H]2[C@H](C(=O)O)[C@H]21 |  | 
 |  |  | N[C@@H](Cn1oc(=O)[nH]c1=O)C(=O)O [QUISQUALATE] | 79 | 60.3
